What was measured:
Type in all cases: cell-based, human
[1] = test system: CD34+ population of cells isolated from cord blood; assay: HD-DoE 8-factor experiment optimized for maximum expression of GATA1 (stage 1); conditions: 8-factor model optimized for maximum GATA1 expression; 3-day treatment
Description: This example utilizes a method of High-Dimensional Design of Experiments (HD-DoE), as previously described in Bukys et al. (2020) Iscience 23:101346. The method employs computerized design geometries to simultaneously test multiple process inputs and offers mathematical modeling of a deep effector/response space. The method allows for finding combinatorial signaling inputs that control a complex process, such as during cell differentiation. It allows testing of multiple plausible critical process parameters, as such parameters impact output responses, such as gene expression. Because gene expression provides hallmark features of the phenotype of, for example, a human cell, the method can be applied to identify, and understand, which signaling pathways control cell fate. […]
To test the effectors, experiments with at least 8 factors were designed that can assess the response of cells to different combinations of effectors in a range of concentrations. […] The impact of each effector on gene expression level is defined by a parameter called factor contribution that is calculated for each effector during the modeling. […]
To identify the recipe of stage 1 of differentiation, cells were grown for 3 days in media containing stem cell factor (SCF). […] Three days later RNA extraction was performed and gene expression was obtained using quantitative PCR analysis. […]

CD34 cells = assay: HD-DoE 6-factor experiment optimized for maximum expression of GATA1; conditions: 6-factor model optimized for maximum GATA1 expression; SCF 5 ng/mL in all wells
Experimental: To test whether EPO or other commonly used cytokines are required for GATA1 induction, we conducted experiments with 6 factors in a range of concentrations. On this experiment CD34 cells were thawed and kept overnight in media containing SCF 10 ng/mL. On the next day, 48 different combinations of effectors were added to the cells, and SCF 5 ng/mL was kept in all the wells. Optimizing for maximal expression of the GATA1 key regulatory gene led to a robust solution. At this solution, other genes expressed in megakaryocytes and erythrocytes, such as ITGA2b, ZFPM1, KLF1 and EPOR were also predicted to be abundantly expressed. This model was derived from initial testing of IL6, IL3, SCF, EPO, Activin A and IGFII.

[2] = test system: MEP progenitor from CD34+ HSCs; assay: Factor criticality analysis (dynamic profile), stage 1 recipe; set-up: GATA1 expression / TFRC expression: unit not given here
Experimental: To assess the impact of the elimination of each validated factor identified for the stage 1 and 2 recipes as described in Example 1, dynamic profile analysis was used and compared the expression level of genes of interest in absence of each finalized factor while others are present.
In the stage 1 recipe, each of the five finalized factors was removed while the other four factors remained present and the expression levels of GATA2, GATA1, CD36 and TFRC were assessed compared to the presence of all five factors. When IL-3 was removed, the values of GATA1 expression decreased from 510 to 240, the values of CD36 expression changed from 260 to 70, the values of GATA2 expression decreased from 2200 to 1400 and the values of TFRC expression dropped from 960 to 580. All changes represent a significant loss of expression of a desired gene for the MEP progenitor.

[3] = named factor removed, other four present

B1: IL-3: IL3R agonist, interleukin-3 (protein, UniProt P08700 20-152, looked up)
Interleukin-3: APMTQTTPLKTSWVNCSNMIDEIITHLKQPPLPLLDFNNLNGEDQDILMENNLRRPNLEAFNRAVKSLQNASAIESILKNLLPCLPLATAAPTRHPIHIKDGDWNEFRRKLTFYLKTLENAQAQQTTLSLAIF
Question: For B1, which factor contribution [1] is on record?
Answer: 41

Question: What about the factor contribution (CD34 cells) of the same molecule?
Answer: 31

Question: And the CD36 expression ([2]; all five factors present)?
Answer: 260

Question: What about the GATA1 expression ([2]; all five factors present) of the same molecule?
Answer: 510

Question: And the GATA2 expression ([2]; all five factors present)?
Answer: 2200

Question: What about the TFRC expression ([2]; all five factors present) of the same molecule?
Answer: 960

Question: And the CD36 expression [2, 3]?
Answer: 70

Question: What about the GATA1 expression [2, 3] of the same molecule?
Answer: 240

Question: What about the GATA2 expression [2, 3] of the same molecule?
Answer: 1400

Question: What about the TFRC expression [2, 3] of the same molecule?
Answer: 580

Reference: US20230174938A1, “METHODS AND COMPOSITIONS FOR GENERATING HUMAN ERYTHROID PROGENITOR CELLS” (Trailhead Biosystems Inc., priority 2021, published 2023)
